## Antibody variant affinities, Ab-14 light chain, assay B

Reference: Li et al. 2023, doi:10.1038/s41467-023-39022-2. File: FLAb, binding data.

Binding partner: SARS-CoV-2 spike HR2 peptide, sequence PDVDLGDISGINAS.

Ab-14 is the parent antibody, in scFv form: VH, then three GGGGS repeats, then VL. The heavy chain is unchanged in all variants.
VH: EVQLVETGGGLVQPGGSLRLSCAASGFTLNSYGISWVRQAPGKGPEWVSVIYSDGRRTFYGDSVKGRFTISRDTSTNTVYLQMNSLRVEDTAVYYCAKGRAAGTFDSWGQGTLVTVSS
VL: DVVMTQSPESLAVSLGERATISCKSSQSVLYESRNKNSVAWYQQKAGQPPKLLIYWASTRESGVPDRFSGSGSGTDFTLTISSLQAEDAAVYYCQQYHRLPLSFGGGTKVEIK

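Designed CDR sequences, proposed from the first random library and measured here. Several design methods are mixed in this list. The scFvs were displayed on barcoded MATa yeast, the peptide on MATalpha yeast. Mating (16 h, 30 °C) was followed by selection of diploids and sequencing of their barcodes. A regression on co-assayed BCL2-family reference pairs converts the normalised counts of each replicate to an apparent Kd. There are six technical replicates.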

Variants are written as CDR1, CDR2 and CDR3 of the light chain (limits as in the source). Parent: KSSQSVLYESRNKNSVA, WASTRES, QQYHRLPLS. The read-out is the apparent dissociation constant on a log10 scale (nM): the lower, the stronger. Replicates are averaged; those with no signal do not enter the mean. A pair that was not seen in any replicate is written "not detected"; this usually means weak binding, but a binder can also be missed. In the paper, a design with two or fewer of six values counts as a poor binder.

mean, log10 nM | replicates with signal | signal with controls | CDR-L1 | CDR-L2 | CDR-L3
0.37 | 6/6 | 0/18 | HLSDRLSYGKDLQAAVA | GVQTRMT | QQYARLPLL
-0.12 | 6/6 | 0/18 | KFQQSVGYQTRNPNSVA | EASQRES | QQYHRLPLS
0.57 | 6/6 | 0/18 | TISQMSTLFSQSINNVA | EVSTRLN | QQYDRLPLM
0.91 | 6/6 | 0/18 | KLRQLQHIESFNKNNVA | EMTTRES | QSYDRLPLS
0.51 | 6/6 | 0/18 | KLPQSTMQESVSKNSVA | ELSTRGS | QQYHRLPLS
-0.25 | 6/6 | 0/18 | KMSQSVLMESRNKNSVA | NASTRES | QQYHRLPLS
1.65 | 6/6 | 1/18 | KISQSVLYESRNKNSVA | WASTRES | QSYIRLPLS
0.85 | 6/6 | 0/18 | TISQMTSLFSQSINNVA | EVSTREE | QQYDRLPLS
-0.39 | 6/6 | 1/18 | KVSQSELYESRNKNSVA | EASCRES | QQYHRLPLS
0.54 | 6/6 | 0/18 | KVSQSVLYESRVKNSVA | NASTRES | QQMHRLPLS
-0.28 | 6/6 | 0/18 | KFSQSVAYESRNKNSVA | NASTRES | QQYHRLPLS
0.02 | 6/6 | 0/18 | KLSQSELYESRNKNSVA | NASTREV | QQYHRLPLS
0.89 | 6/6 | 1/18 | IVSQLMLWGMHVKNSIA | EAETRLN | QQYERLPLF
-0.06 | 6/6 | 3/18 | KLMQSVPYESRNKNSVA | NASTRMS | QQYHRLPLS
0.55 | 6/6 | 1/18 | KSSQSMLYESRNKNSVA | QASFRED | QQYHRLPLS
2.29 | 5/6 | 0/18 | HITMGMYVHGRHHSSIA | QAETRAK | QQYDRLPLM
0.68 | 6/6 | 1/18 | KFSQSVLYEDRTYNSVA | NASTRES | QQYHRLPLS
not detected | 0/6 | 1/18 | HVSEMIFAQMKARNSVA | ENSTREA | QQYDRLPLS
-0.20 | 6/6 | 0/18 | KLSGSVGYESRNPNNVA | NASTREL | QQYHRLPLS
-0.17 | 6/6 | 0/18 | KSSISHLEESRNKNSVA | EASTRES | QQYHRLPLS
0.03 | 6/6 | 0/18 | KLSQVTEYESHNKNNVA | DLTTRGS | QDYHRLPLS
-0.08 | 6/6 | 1/18 | KLSQSVLYESRNKNSVA | QASTRCS | QQYHRLPLS
2.31 | 6/6 | 1/18 | KSSQKVLYESHNMNSVA | WANTRES | QQYHRLPLS
0.05 | 6/6 | 0/18 | KYLQSVLYESRDKNSVA | HASTRED | QQYHRLPLS
1.06 | 6/6 | 1/18 | KSSISPLYESRNTNSVA | EASTRES | QQYHRLPLS
not detected | 0/6 | 0/18 | KCSQSVEYHSRNKNSVA | WASTRES | QQYIRLPLP
not detected | 0/6 | 0/18 | KSSMSVLYESRNKNSVA | WASTRAS | QQYHRLHLS
0.94 | 6/6 | 0/18 | NLVGRVPDMYDGRNAIA | DMHCRAT | QQYERLPLA
1.67 | 6/6 | 1/18 | ILSDHAVNQYDEADNIA | DKTETSV | QQYARLPLS
1.26 | 6/6 | 0/18 | TISELYNQALGMRNNVA | NNQTRED | QQYNRLPLS
-0.21 | 6/6 | 0/18 | KLMQGVEMESRNKNSVA | NASKREE | QQYHRLPLS
-0.22 | 6/6 | 0/18 | KLSQSWLYESRNKNSVA | NASQREW | QQYHRLPLS
-0.24 | 6/6 | 1/18 | SLYDATMMESRNKNPIA | DVSTRPS | QQYHRLPLS
-0.26 | 6/6 | 0/18 | KLAQSVAMTSHGINSVA | QSTTREE | QQYNRLPLS
1.36 | 6/6 | 1/18 | SLEMFTGMLNMYKSSIA | NATYLVQ | QQYYRLPIS
1.44 | 1/6 | 1/18 | KIEWSTFYYAQNDRSIA | EESRKER | QQYMMLPLS
0.35 | 6/6 | 1/18 | KISQSWLYEPRNSNSVA | NASTRQM | QQYHRLPLS
-0.20 | 6/6 | 1/18 | KLSQSVLYESRNKNNVA | EASTREW | QQYHRLPLS
0.09 | 6/6 | 1/18 | KSGCGELYESRNKNSVA | GASTRES | QQYHRLPLS
-0.11 | 6/6 | 0/18 | KLSLSVLYESRNKNSVA | NASTRES | QQYHRLPLS
not detected | 0/6 | 0/18 | QSSQSVLYESRNKNSVA | NADTRES | QQYHRLLLS
0.66 | 6/6 | 1/18 | KVYEMMAFLSSNRNNVA | DNSTRGS | QQYHRLPLS
-0.39 | 6/6 | 0/18 | KSSQSVEMESRNSNNVA | DASQRES | QQYHRLPLS
0.93 | 6/6 | 1/18 | QLHAYTQGFKRADGNIA | EISYRAI | QQYGRLPLS
1.51 | 6/6 | 0/18 | VLSATIENQYDEADNIA | DKTETSK | QQYARLPLS
-0.46 | 6/6 | 0/18 | KLPQSVLYESRNKNAVA | NASQRES | QQYHRLPLS
not detected | 0/6 | 0/18 | KSSQSVLYEERNKNSVA | FHSTRES | QQYHRLPLS
1.64 | 6/6 | 1/18 | SVHFYGTTGEQNWESIA | ENSIRVE | QQYSHLPLL
0.51 | 6/6 | 1/18 | KLMPSHLYESRNKNSVA | NASYREQ | QQYHRLPLS
1.76 | 5/6 | 0/18 | TITMFMDNLSHNRNNVA | DTSTLGS | QSYERLPLS
1.51 | 3/6 | 0/18 | KSSNSVLYEERNKNSVA | WASTRES | QQYHRLPLS
2.03 | 4/6 | 0/18 | KSSQSVLYESRNKNSVA | WASTRYS | QQYHRLPLS
0.79 | 6/6 | 0/18 | KIGMTLNQLYQKANNVA | DLVTREN | QQYHRLPLS
-0.28 | 6/6 | 0/18 | KLSQSELYESRNKNSVA | NASTREH | QQYHRLPLS
1.23 | 6/6 | 0/18 | KLSMITGHQLMSKNNVA | EMETREN | QQYDRLPLS
1.53 | 6/6 | 0/18 | TISQMSTLFSQSINNVA | EVSTRLN | QQYDRLPLA
-0.32 | 6/6 | 1/18 | KLSTSVMLESRNVNSVA | SASTRSE | QQYHRLPLS
-0.03 | 6/6 | 0/18 | KFSQSVHYESRTKNSVA | NASTRES | QQYHRLPLS
0.61 | 6/6 | 0/18 | HSSPSVYYESRNKNSVA | NASTRHS | QQYHRLPLS
0.18 | 6/6 | 0/18 | KSGQGVNYESRNSNSVA | GASTRES | QQYHRLPLS
not detected | 0/6 | 0/18 | KISESVLYESRNKNSVA | WASTRES | QQYHRLQLS
-0.20 | 6/6 | 1/18 | KSSQSWLYESGNKNSVA | HASTRES | QQYHRLPLS
0.05 | 6/6 | 1/18 | KLSQSVLYESRLKNSVA | NASQRES | QQYHRLPLS
0.02 | 6/6 | 2/18 | KLMGEMDYESRNKNSVA | HASERES | QQYHRLPLQ
not detected | 0/6 | 0/18 | KSSKSVFYEIRNKNCVA | WASTRES | QAYHRLPLS
-0.02 | 6/6 | 0/18 | KVSQSFLYESRNKNSVA | GASTRES | QAYHRLPLS
0.13 | 6/6 | 2/18 | KSSGSVLYESRNKNSVA | GASTRES | QQYHRLPLS
0.31 | 6/6 | 2/18 | KLDFSVLEESRNPNSVA | SASTRES | QDYHRLPLS
-0.23 | 6/6 | 0/18 | KLSESWLYESQNSNNVA | DASTRMS | QQYHRLPLS
not detected | 0/6 | 0/18 | MSSQSVLYESRNKNSVA | FASTREL | QQYHRLPLA
0.18 | 6/6 | 0/18 | KMSQSMLYEQRAFNSVA | NASQRES | QQYHRLPLS
0.81 | 6/6 | 1/18 | KSSISMLYESRNKNSVA | EASTRES | QQYHRLPLM

Extract of 5 entries:

{"CDR-L1": "KSSISMLYESRNKNSVA", "CDR-L2": "EASTRES", "CDR-L3": "QQYHRLPLM", "mean, log10 nM": "0.81", "replicates with signal": "6/6", "signal with controls": "1/18"}
{"CDR-L1": "KSSQKVLYESHNMNSVA", "CDR-L2": "WANTRES", "CDR-L3": "QQYHRLPLS", "mean, log10 nM": "2.31", "replicates with signal": "6/6", "signal with controls": "1/18"}
{"CDR-L1": "KLMGEMDYESRNKNSVA", "CDR-L2": "HASERES", "CDR-L3": "QQYHRLPLQ", "mean, log10 nM": "0.02", "replicates with signal": "6/6", "signal with controls": "2/18"}
{"CDR-L1": "HVSEMIFAQMKARNSVA", "CDR-L2": "ENSTREA", "CDR-L3": "QQYDRLPLS", "mean, log10 nM": "not detected", "replicates with signal": "0/6", "signal with controls": "1/18"}
{"CDR-L1": "KLRQLQHIESFNKNNVA", "CDR-L2": "EMTTRES", "CDR-L3": "QSYDRLPLS", "mean, log10 nM": "0.91", "replicates with signal": "6/6", "signal with controls": "0/18"}

Of ten entries with the parent sequence, four were seen in most replicates (averages 0.34 to 2.37), three in one and three in none, so single entries are noisy. A sequence measured in both rounds can read differently, since the two assays cover different ranges. As a blank, each scFv also met three strains without target: over all light chain designs, 4% of these pairings were detected, typically at 2.64 and seldom below 1.59. Also given: how often the same scFv was detected with the empty control strains.